Paper PMC11680790

By UniProt entry, the sequences of proteins in these tests, tags left out.
UniProt P35414, whole entry T87V/N112A/T207M/F214L/I224A/S298A: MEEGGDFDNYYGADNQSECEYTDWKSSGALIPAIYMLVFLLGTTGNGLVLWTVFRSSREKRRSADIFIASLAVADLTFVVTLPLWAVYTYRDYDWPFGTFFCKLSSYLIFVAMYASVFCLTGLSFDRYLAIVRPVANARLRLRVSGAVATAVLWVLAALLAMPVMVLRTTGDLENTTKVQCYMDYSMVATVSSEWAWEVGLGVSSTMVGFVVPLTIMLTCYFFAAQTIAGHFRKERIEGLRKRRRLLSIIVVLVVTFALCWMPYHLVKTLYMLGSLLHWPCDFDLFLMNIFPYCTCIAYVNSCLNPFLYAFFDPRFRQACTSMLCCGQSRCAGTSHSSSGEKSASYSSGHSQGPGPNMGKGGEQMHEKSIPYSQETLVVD
UniProt P35414, whole entry T87V/N112A/R168H/T207M/F214L/I224A/S298A: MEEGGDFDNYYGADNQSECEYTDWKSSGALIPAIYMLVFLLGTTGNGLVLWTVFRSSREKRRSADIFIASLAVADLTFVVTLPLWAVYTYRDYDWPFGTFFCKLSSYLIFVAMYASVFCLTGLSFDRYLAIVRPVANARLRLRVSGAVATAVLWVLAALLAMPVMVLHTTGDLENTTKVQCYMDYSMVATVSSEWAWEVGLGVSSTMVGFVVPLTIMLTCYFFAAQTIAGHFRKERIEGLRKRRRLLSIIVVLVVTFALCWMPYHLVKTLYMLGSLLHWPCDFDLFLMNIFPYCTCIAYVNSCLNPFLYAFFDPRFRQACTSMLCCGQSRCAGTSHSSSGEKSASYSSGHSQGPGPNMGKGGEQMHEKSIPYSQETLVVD

Tests used:
apelin receptor NxStaR = apelin receptor NxStaR (Homo sapiens, UniProt P35414, F214L/I224A/N112A/S298A/T207M/T87V); experiment: SPR, pH dependence (Biacore 8K+), NxStaR; details: 5% DMSO, 10 °C, single determination
[1] = target: R/H168^4.64 variant NxStaR (Homo sapiens, UniProt P35414, F214L/I224A/N112A/R168H/S298A/T207M/T87V); experiment: SPR, pH dependence (Biacore 8K+), R/H168^4.64 NxStaR; details: 5% DMSO, 10 °C, single determination

SMILES: CCC(CC)n1c(Cc2cccs2)nc2cc(C(=O)N[C@H](Cc3nn[nH]n3)CC(C)C)ccc21
- Kd (apelin receptor NxStaR; pH 6.0 (MES), 0.02% DDM): 0.7 nM
- Kd (apelin receptor NxStaR; pH 7.5, 0.02% DDM): 1.9 nM
- Kd ([1]; pH 6.0 (MES), 0.02% DDM): 3.8 nM
- Kd ([1]; pH 7.5, 0.02% DDM): 38.1 nM
